Protein sequences, listed by entry. Tags and fused reporters are not part of them. Residues count along the entry.
UniProt Q13546, 1-375 limits assumed: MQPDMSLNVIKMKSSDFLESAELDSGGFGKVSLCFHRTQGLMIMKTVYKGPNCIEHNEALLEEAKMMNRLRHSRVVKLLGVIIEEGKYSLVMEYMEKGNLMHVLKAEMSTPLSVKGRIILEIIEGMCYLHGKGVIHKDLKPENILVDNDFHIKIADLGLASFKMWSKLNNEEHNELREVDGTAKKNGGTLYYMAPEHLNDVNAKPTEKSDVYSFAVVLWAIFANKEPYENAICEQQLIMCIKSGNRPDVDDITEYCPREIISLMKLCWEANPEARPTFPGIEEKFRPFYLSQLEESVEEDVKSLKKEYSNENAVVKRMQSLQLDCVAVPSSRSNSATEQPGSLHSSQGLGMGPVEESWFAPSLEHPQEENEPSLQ

According to patent US20260158009A1 (GENZYME CORPORATION, priority 2023, published 2026):

How the values were obtained:
[1] = molecular target: hRIPK1 (aa 1-375) fusion protein (Homo sapiens, UniProt Q13546); experiment: ADP-Glo kinase assay: catalytic activity of RIPK1 (autophosphorylation, conversion of ATP to ADP); conditions: read-out: ADP Glo assay IC50
Procedure: The catalytic activity of RIPK1 was measured by monitoring the conversion of Adenosine triphosphate (ATP) to Adenosine diphosphate (ADP) due to autophosphorylation using an ADP-Glo kinase kit (Promega, catalog no. V9104).
In detail, 2 μl recombinantly produced hRIPK1 (aa 1-375) fusion protein (end concentration 3.6 μg/ml) and 2 μl compound (end concentration 33300-1.69 nM; DMSO end concentration 1%) were incubated for 30 minutes at room temperature and then 2 μl ATP (ADP Glo kit, end concentration 50 μM) were added. After another 240 minutes incubation at room temperature, 5 μl Promega ADP-Glo reagent I was added to quench the reaction and deplete unconsumed ATP. After an incubation period of 30 minutes, 10 μl Promega ADP-Glo detection reagent II was added resulting in conversion of ADP to ATP, which generates a light-reaction between luciferase and luciferin. Luminescence was quantified after 30 minutes with a Pherastar FS (BMG LABTECH, Ortenberg).
For the dose response experiments an IC50 value with 95% confidence interval was calculated using the 4-parameter logistic model according to Ratkowsky and Reedy with constraints for lower and upper asymptotes at 0% and 100%. The adjustment was obtained by nonlinear regression using the Levenberg Marquardt algorithm.

U937 cells = experiment: Cellular assay in U937 cells: activity of RIPK1 inhibitors on TNFα/zVAD.fmk-induced cell death (necroptosis), CellTiter 96 AQueous (MTS) readout; conditions: read-out: U937 cell assay IC50
Source text: Upon TNF-Receptor I ligation, Ser/Thr kinase RIPK1 is recruited to a transient receptor complex 1. Upon modification of RIPK1 which promotes activation of RIPK1, complex IIb can form, that involves recruitment of RIPK3 and MLKL (mixed lineage-kinase domain-like protein) which then translocates from the cytosol to the plasma membrane to execute cell death (Cai, Z. et al, Nat. Cell Biol. (2014) 16:55-65).
Cell death was quantified in 96 well plates by determination of the amount of live cell using a CellTiter 96 AQueous reagent (Promega), a calorimetric method to measure the number of live cells by reducing tetrazolium compound [3-(4,5-dimethylthiazol-2-yl)-5-(3-carboxymethoxyphenyl)-2-(4-sulfophenyl)-2H-tetrazolium, inner salt; MTS] into formazan. Absorbance of formazan was read at 490 nm. The inhibitory activity of the test compound was quantified in a concentration response curve (CRC) experiment. […]
CellTiter 96 Aqueous reagent was mixed (100 μl PMS (phenazine methosulfate) solution/2 ml MTS (3-(4,5-[…])-5-(3-carboxymethoxyphenyl)-2-(4-sulfophenyl)-2H-tetrazolium, inner salt) solution) and 20 μl were added per well. […] (5% CO2 95% rH) optical density was measured at 490 nm on a microplate reader (Tecan Infinite M1000).
The % inhibition is expressed as percentage of the maximal inhibition value obtained in the absence of TNFα/zVAD.fmc. […]

SMILES | IC50 [1] [nM] | IC50 (U937 cells) [nM]
Cc1nccn1-c1cc(C[C@H]2CC[C@H](C(=O)N3OCC[C@H]3c3cc(F)cc(C#N)c3)CC2)ncn1 | 25 | 65
Cc1nc2cc(C[C@H]3CC[C@H](C(=O)N4OCC[C@H]4c4ccc(F)cc4)CC3)ccn2n1 | 18 | 24
